This note sets out measurements from PubChem BioAssay AID1885 (Broad Institute, 2009).

Structures are written as SMILES. Only a part is listed here, and it is no random draw. Active and inactive are the calls of the source.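 How the source made its calls: active means mean inhibition across valid replicates above about 55% (limit read from the data); inconclusive means mean below that limit but half or more replicates reach it; inactive means mean below it, under half of replicates reach it.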

The term inhibition denotes how much of the control response was suppressed.

The assay in a line: inhibitors of intracellular T. cruzi growth, primary screen, luminescence, NIH3T3 host cells (AID 1885).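 Further: signal also drops with host cell toxicity which is not excluded here; 0% = plate median of DMSO wells and 100% = zero luminescence signal; higher percent means less beta-gal luminescence so fewer parasites.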 To be noted: T. cruzi beta-gal in NIH3T3, luminescence, 90 h; stronger effect = higher value; concentration not given here. In a few lines:
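System: Mouse NIH/3T3 fibroblasts infected with β-gal-expressing T. cruzi Tulahuen C4 | Quantity: NIH/3T3 cells, 5,000 per well | Reagent: 5000 reporter trypomastigotes per well | Dosing: Compound pinned at 50 nL/well, DMSO | Schedule: 3 h host attachment, then at least 90 h co-culture | Detection: GalScreen luminescence, 60 min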
For the compound `Cc1ccc(NCCc2c([N+](=O)[O-])cc([N+](=O)[O-])cc2[N+](=O)[O-])cc1`, the inhibition is active: 56.4%.
The same measure for `CCC1=CC2Cc3nc4ccc(Cl)cc4c(N)c3C(C1)C2` (configuration not stated): active: 60%; for `CCC(C)N(CC(C)C)C(=S)SC(NC(C)=O)C(Cl)(Cl)Cl` (configuration not stated): active: 77.6%; for `O=[N+]([O-])c1cc([N+](=O)[O-])c(-c2ccn[nH]2)s1`: active: 63.7%.
The same measure for `CCN(CC)C(=S)SC(NC=O)C(Cl)(Cl)Cl` (configuration not stated): active: 65.6%; for `O=[N+]([O-])c1cc([N+](=O)[O-])c(CCNc2ccccc2)c([N+](=O)[O-])c1`: active: 73.6%.
The same measure for `Cc1ccc(OP(=O)(Nc2ccccn2)Oc2ccc(C)cc2)cc1`: active: 82.7%.
